The values below come from patent US12419964B2, “Antibody drug conjugate (ADC) targeting Nectin 4 and comprising an exatecan payload” (ELI LILLY AND COMPANY, priority 2023, dated 2025).

This series in a line: Aggregation by SEC-HPLC. To be noted: determined by SEC-HPLC, after conjugation. Type of series: physicochemical. The protocol: As determined by SEC-HPLC, less than 5% material was aggregated. […] (See FIG. 2 and corresponding Brief Description). Ex vivo stability of ETx-22 was assessed by incubating ETx-22 in mouse, cynomolgus or human serum and measuring DAR over time. (See FIG. 3 and corresponding Brief Description). In vitro cytotoxic activity was assessed for the HCT-116-2G10 clone expressing human nectin-4. (See FIG. 4 and corresponding Brief Description).
As a comparator ADC, the HA22 anti-Nectin-4 mAb was conjugated to maleimidocaproyl-valine-citrulline-PABC-MMAE to generate enfortumab vedotin. Briefly, a 15 mg/mL solution of the HA22 in 10 mM acetate 1% sorbitol, 3% L-arginine, pH 5.0 was supplemented with a 20% volume of 0.1 M Tris, 25 mM EDTA and 750 mM NaCl, pH 8.4 to adjust the pH of the solution to 7.5, 5 mM EDTA and 150 mM sodium chloride. […] The mixture was stirred for 60 minutes at 5° C., then for 15 additional minutes following the addition of 1 molar equivalents of N-acetylcysteine relative to cysteine reactive linker-MMAE compound. Excess quenched cysteine reactive linker-payload and other reaction components were removed by ultrafiltration/diafiltration of the antibody drug conjugate (ADC) with 10 volumes of 20 mM histidine, pH 6.0. The drug-antibody ratio (DAR) according to LC-MS analysis was 3.79 toxins per conjugated mAb. As determined by SEC-HPLC, less than 1% material was aggregated.

B1: ETx-22: ADC of H1L2_15A7.5 anti-Nectin-4 mAb (HC SEQ ID NO:5, LC SEQ ID NO:6) conjugated via cysteines to exatecan Linker-Payload of Formula (L-P′) (conjugate)
heavy: EVQLVESGGGLVQPGGSLRLSCAASGFTFSNYGMAWVRQAPGKGLEWVSFISNLAYGINYADTVTGRFTISRDNAKNSLYLQMNSLRAEDTAVYYCARGARATGWFAYWGQGTLVTVSSASTKGPSVFPLAPSSKSTSGGTAALGCLVKDYFPEPVTVSWNSGALTSGVHTFPAVLQSSGLYSLSSVVTVPSSSLGTQTYICNVNHKPSNTKVDKRVEPKSCDKTHTCPPCPAPEFEGGPSVFLFPPKPKDTLMISRTPEVTCVVVDVSHEDPEVKFNWYVDGVEVHNAKTKPREEQYNSTYRVVSVLTVLHQDWLNGKEYKCKVSNKALPASIEKTISKAKGQPREPQVYTLPPSREEMTKNQVSLTCLVKGFYPSDIAVEWESNGQPENNYKTTPPVLDSDGSFFLYSKLTVDKSRWQQGNVFSCSVMHEALHNHYTQKSLSLSPGK
light: DIQMTQSPSSLSASVGDRVTITCKASQNVDTHVAWYQQKPGKAPKALIYSASYRYSGVPSRFSGSGSGTDFTLTISSLQPEDFATYYCQQYNSYPLTFGGGTKVEIKRTVAAPSVFIFPPSDEQLKSGTASVVCLLNNFYPREAKVQWKVDNALQSGNSQESVTEQDSKDSTYSLSSTLTLSKADYEKHKVYACEVTHQGLSSPVTKSFNRGEC
modifications: exatecan linker-payload conjugated via cysteines
For the molecule B1, the material aggregated entry is on record as “less than 5%”.
